# Apparent affinities of Ab-14 variants for a coronavirus HR2 peptide

Target: peptide PDVDLGDISGINAS, taken from heptad repeat 2 (HR2) of SARS-CoV-2 spike.

Ab-14 is the parent antibody, in scFv form: VH, then a (GGGGS)3 linker, then VL. The heavy chain is unchanged in all variants.
VH: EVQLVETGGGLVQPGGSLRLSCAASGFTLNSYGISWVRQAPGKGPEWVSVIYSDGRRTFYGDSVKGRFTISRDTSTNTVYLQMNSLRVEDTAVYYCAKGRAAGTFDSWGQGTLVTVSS
VL: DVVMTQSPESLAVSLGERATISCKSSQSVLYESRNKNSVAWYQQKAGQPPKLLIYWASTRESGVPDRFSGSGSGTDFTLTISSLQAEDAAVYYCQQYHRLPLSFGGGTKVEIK

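The parent was found by panning a naive human phage display library on the peptide. Library AAYL50 holds single substitutions and randomly drawn double and triple substitutions in the CDRs. The scFvs were displayed on barcoded MATa yeast, the peptide on MATalpha yeast. Binding brings cells together so that they mate, and sequencing counts the barcode pairs among the diploids. Each replicate has its own calibration line, from reference interactions of the BCL2 family. There are three technical replicates.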

Changes read parent residue, position, new residue, counted from the first residue of the VL shown. All variants listed here change S33 of the VL, counted from its first residue. Values are apparent Kd, the geometric mean of the replicates that gave a signal; lower means stronger binding. "no signal" means that the variant was in the library but no mating with the target was seen in any replicate; the authors take this as a sign of poor binding, and no number exists. In this assay the parent's reference entry averaged 4.4 nM; its copy inside this library read 48 nM. Three control strains display no target. For library AAYL50, 18% of the pairings with them gave a signal, with a median of 15 µM and one signal in twenty below 970 nM, so weak values seen in few replicates may be background.

- Q27W+L30F+S33M = 110 nM (3 of 3 replicates)
- S33H+N35I+K36T = 64 nM (3 of 3 replicates)
- S33D+K36R+N37W = 7.0 nM (3 of 3 replicates)
- S26K+S33C+W56S = 37 nM (3 of 3 replicates)
- S33H+L100N+P101D = 25 nM (3 of 3 replicates)
- S33Q+P101Q = no signal (0 of 3 replicates)
- S25T+S33H+V39L = 17 nM (3 of 3 replicates)
- E32V+S33R+S38D = no signal (0 of 3 replicates)
- S33R+S58C+H98W = 7.9 µM (2 of 3 replicates)
- V29N+E32P+S33V = 13 nM (3 of 3 replicates)
- V29K+Y31V+S33F = 4.0 µM (2 of 3 replicates)

A selection of 2 entries from above:

{"changes": "E32V+S33R+S38D", "apparent Kd": "no signal", "seen in": "0 of 3"}
{"changes": "S33Q+P101Q", "apparent Kd": "no signal", "seen in": "0 of 3"}

Source: Engelhart et al. 2022 (doi:10.1038/s41597-022-01779-4), MIT Lincoln Laboratory and A-Alpha Bio; data file from the FLAb repository.